Tested on: PDGF-generated neurospheres
Test: Differentiation of primary PDGF-AA-generated neurospheres, immunocytochemistry
Format: cell-based, mouse
[1] = 50 ng/ml BMP-2, 2 DIV, vs 1% FBS

B1: BMP-2: bone morphogenetic protein-2 (protein, UniProt P12643 283-396, looked up)
Bone morphogenetic protein 2: QAKHKQRKRLKSSCKRHPLYVDFSDVGWNDWIVAPPGYHAFYCHGECPFPLADHLNSTNHAIVQTLVNSVNSKIPKACCVPTELSAISMLYLDENEKVVLKNYQDMVVEGCGCR
neurite length [1]: increased neurite length
number of oligodendrocytes produced per clone [1]: no significant effect
MBP-only clones (2 DIV): completely inhibited the generation of MBP-only clones
GFAP-immunoreactive cells (astrocytes) (2 DIV differentiation): absent
percentage of clones expressing NFM (2 DIV, vs 1% FBS): increased the percentage of clones expressing NFM
OLIG2 / O4 expression (6 DIV PDGF-generated neurospheres differentiated 2 DIV): significantly reduced expression of OLIG2
T3-induced oligodendrocyte differentiation (BMP-2 in the presence of T3, 2 DIV): suppressed T3-induced oligodendrocyte differentiation

— patent US7629169B2, “Methods for the production of platelet-derived growth factor-responsive neural precursor cells” (Stem Cell Therapeutics Corp., priority 2004, dated 2009)
